Reference: ChEMBL document CHEMBL5046217, “Discovery of New Imidazo[2,1-b]thiazole Derivatives as Potent Pan-RAF Inhibitors with Promising In Vitro and In Vivo Anti-melanoma Activity” (J Med Chem, 2021)

By UniProt entry, the sequences of proteins in these tests, tags left out. Where a name states a change or a piece, a line headed by the entry shows the natural chain unless it says otherwise.
UniProt P00519, whole entry: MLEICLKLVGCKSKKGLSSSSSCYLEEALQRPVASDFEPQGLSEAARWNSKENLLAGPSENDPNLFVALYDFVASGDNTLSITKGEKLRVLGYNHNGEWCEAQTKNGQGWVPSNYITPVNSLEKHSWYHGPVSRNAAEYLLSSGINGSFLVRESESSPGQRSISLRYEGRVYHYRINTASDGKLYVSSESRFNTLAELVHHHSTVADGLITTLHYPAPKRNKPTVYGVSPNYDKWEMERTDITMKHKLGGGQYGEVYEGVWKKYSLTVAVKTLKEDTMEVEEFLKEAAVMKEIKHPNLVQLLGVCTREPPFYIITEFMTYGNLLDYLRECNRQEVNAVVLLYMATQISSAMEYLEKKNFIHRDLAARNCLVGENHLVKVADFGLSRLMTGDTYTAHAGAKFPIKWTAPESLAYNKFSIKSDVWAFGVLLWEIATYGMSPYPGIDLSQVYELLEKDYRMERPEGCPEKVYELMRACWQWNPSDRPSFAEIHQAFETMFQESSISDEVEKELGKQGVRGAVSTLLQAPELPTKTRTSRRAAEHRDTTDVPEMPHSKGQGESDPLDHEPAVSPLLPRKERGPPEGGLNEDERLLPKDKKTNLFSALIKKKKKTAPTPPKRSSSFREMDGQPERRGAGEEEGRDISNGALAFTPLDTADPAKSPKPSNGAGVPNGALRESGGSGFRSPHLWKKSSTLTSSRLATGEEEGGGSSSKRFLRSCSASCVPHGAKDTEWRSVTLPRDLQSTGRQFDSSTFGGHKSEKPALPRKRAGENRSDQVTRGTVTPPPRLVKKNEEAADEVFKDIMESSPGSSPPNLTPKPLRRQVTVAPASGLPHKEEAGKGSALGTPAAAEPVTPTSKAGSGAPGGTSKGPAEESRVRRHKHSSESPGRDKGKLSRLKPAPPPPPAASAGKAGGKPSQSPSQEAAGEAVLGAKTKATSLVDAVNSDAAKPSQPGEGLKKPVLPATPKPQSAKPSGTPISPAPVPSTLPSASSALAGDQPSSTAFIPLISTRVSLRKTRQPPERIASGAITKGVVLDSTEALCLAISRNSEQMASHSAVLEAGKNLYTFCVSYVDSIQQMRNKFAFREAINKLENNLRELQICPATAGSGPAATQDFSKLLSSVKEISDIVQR
UniProt P11362, whole entry, looked up: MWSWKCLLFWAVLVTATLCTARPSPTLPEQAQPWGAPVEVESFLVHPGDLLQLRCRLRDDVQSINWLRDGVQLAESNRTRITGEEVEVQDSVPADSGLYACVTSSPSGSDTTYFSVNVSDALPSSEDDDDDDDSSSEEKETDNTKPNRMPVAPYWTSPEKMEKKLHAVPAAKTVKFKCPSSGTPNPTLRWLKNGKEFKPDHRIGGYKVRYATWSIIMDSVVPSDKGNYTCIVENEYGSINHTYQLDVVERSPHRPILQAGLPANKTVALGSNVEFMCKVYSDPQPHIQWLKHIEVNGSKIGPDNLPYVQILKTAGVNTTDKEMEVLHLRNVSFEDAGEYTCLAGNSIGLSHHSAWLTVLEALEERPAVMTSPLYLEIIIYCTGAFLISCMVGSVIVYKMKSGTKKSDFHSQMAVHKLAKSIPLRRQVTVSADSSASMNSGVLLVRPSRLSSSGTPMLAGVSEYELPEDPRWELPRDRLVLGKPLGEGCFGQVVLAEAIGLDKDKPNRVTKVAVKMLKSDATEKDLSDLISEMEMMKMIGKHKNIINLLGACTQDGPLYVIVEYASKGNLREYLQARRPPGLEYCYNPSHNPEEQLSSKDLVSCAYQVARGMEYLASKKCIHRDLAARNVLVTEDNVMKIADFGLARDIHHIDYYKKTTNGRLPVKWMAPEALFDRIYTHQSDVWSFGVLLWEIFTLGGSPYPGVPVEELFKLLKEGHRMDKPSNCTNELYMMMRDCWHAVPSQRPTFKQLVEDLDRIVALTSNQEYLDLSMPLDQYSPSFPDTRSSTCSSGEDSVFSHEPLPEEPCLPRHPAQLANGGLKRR
UniProt Q86Z02: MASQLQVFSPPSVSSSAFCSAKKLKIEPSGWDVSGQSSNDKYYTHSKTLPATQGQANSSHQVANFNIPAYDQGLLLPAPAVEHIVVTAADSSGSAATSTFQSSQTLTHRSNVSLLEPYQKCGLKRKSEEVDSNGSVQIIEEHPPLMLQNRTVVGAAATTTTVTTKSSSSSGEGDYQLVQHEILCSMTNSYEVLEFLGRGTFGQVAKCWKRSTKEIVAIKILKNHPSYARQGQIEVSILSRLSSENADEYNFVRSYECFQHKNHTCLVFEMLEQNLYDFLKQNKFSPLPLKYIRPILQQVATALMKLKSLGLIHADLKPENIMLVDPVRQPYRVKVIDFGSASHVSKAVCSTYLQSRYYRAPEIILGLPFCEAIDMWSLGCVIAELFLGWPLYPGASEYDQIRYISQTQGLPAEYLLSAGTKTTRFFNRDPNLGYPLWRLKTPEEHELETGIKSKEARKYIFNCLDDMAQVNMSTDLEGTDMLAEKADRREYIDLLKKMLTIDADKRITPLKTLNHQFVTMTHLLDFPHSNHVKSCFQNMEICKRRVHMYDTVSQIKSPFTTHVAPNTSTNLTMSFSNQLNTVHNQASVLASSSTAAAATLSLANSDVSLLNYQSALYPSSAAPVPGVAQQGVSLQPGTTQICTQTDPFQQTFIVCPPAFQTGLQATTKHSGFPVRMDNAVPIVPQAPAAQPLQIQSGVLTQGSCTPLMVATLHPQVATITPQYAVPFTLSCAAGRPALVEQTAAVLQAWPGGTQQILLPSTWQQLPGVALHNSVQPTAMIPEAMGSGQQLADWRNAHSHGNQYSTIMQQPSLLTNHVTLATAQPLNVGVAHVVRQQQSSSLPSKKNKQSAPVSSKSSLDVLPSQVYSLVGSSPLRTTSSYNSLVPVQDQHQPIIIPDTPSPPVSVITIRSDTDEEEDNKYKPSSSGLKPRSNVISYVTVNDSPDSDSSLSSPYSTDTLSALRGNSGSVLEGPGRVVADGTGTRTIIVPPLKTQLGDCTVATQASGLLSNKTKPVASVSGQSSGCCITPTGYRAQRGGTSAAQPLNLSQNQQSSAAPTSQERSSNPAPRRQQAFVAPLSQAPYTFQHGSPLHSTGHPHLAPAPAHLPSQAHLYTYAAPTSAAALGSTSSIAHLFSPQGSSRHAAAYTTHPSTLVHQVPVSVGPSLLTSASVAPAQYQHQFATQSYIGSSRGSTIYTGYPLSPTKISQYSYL
UniProt P45983: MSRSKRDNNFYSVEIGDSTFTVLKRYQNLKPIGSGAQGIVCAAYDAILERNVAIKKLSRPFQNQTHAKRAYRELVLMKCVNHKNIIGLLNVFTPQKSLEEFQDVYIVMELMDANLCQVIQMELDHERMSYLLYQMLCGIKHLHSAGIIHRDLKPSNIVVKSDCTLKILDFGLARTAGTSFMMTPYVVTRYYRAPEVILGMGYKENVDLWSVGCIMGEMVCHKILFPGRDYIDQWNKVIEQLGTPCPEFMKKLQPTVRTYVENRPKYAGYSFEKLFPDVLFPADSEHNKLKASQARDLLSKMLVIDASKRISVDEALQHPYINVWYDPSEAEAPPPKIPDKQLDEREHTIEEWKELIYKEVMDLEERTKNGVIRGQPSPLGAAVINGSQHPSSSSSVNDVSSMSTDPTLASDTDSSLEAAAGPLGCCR
UniProt P15056, whole entry V600E: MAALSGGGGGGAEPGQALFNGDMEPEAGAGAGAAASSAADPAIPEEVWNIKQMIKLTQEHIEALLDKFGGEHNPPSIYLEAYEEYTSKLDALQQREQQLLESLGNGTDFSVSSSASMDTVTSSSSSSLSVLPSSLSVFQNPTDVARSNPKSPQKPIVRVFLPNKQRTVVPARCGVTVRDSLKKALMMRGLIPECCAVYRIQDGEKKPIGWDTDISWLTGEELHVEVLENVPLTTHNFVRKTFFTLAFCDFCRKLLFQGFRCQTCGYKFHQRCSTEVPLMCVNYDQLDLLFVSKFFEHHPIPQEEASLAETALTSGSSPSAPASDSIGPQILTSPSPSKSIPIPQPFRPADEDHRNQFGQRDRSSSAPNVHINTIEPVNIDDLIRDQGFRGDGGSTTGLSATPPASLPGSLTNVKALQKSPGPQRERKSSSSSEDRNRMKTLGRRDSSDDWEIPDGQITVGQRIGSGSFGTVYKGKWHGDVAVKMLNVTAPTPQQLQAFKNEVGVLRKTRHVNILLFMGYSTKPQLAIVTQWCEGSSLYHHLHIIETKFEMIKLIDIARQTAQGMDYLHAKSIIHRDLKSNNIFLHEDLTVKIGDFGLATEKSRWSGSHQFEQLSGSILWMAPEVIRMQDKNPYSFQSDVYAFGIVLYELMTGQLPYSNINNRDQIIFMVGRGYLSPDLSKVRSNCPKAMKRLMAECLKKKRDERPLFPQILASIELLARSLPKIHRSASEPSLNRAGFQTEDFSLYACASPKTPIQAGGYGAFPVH
UniProt P15056, whole entry: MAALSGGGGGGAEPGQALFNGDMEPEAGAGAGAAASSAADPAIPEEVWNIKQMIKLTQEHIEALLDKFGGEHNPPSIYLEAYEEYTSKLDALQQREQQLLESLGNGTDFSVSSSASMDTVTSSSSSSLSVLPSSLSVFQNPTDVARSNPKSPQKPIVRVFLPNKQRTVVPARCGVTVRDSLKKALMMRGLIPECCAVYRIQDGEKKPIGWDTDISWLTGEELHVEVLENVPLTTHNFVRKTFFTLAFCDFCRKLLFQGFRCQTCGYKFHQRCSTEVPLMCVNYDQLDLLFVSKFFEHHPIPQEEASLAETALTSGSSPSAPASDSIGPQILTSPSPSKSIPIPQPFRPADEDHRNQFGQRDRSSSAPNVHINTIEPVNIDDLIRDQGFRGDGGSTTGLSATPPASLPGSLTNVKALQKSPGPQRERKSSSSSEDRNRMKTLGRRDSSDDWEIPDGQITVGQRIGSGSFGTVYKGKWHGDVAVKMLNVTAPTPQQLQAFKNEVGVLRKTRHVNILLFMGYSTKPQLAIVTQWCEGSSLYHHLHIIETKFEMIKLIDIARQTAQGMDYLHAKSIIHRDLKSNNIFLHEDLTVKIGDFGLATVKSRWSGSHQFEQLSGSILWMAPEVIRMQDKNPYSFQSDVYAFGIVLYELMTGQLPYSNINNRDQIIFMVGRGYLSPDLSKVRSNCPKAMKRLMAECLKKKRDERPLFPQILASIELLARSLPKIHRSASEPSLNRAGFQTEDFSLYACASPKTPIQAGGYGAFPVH
UniProt P36888, whole entry: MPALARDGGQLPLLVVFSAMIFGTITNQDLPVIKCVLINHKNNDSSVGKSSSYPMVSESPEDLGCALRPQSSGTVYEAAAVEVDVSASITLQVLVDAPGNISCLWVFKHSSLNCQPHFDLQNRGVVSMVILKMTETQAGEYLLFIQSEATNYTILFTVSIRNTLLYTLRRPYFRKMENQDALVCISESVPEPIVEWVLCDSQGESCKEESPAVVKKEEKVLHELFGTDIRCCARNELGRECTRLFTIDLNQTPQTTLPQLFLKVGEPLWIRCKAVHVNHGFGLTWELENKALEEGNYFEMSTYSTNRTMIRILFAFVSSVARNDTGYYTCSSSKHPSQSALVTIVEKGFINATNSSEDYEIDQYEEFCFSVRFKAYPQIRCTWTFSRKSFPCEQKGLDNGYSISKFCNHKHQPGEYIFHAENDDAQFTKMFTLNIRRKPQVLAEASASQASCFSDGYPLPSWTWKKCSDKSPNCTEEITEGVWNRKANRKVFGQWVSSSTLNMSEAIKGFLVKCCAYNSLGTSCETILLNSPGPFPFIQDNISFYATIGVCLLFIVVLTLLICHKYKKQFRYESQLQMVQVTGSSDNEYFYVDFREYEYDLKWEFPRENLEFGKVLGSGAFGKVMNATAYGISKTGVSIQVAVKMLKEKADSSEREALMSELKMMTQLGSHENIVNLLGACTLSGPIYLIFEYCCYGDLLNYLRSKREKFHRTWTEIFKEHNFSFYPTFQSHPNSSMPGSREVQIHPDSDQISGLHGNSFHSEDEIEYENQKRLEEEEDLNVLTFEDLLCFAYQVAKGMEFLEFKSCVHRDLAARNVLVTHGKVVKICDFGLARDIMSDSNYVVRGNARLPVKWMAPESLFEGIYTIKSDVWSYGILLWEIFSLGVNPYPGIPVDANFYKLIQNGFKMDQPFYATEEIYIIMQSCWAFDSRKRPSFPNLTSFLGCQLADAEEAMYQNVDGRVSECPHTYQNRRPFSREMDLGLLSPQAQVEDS
UniProt Q15759, whole entry: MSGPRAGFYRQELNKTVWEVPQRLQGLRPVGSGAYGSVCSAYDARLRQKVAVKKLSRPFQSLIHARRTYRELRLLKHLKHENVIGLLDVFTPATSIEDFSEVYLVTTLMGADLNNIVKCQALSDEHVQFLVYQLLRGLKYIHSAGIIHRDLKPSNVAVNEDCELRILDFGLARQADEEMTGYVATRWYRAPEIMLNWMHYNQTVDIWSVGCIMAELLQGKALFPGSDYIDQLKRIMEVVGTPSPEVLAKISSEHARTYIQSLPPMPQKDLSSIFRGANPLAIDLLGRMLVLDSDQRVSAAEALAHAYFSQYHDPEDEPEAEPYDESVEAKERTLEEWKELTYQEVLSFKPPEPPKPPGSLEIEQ

How the values were obtained:
[1] = biological target: Serine/threonine-protein kinase/endoribonuclease IRE1 (Homo sapiens, UniProt O75460); assay: Inhibition of ERN1 (unknown origin) at 10 uM incubated for 1 hr by qPCR analysis
[2] = biological target: Tyrosine-protein kinase ABL1 (Homo sapiens, UniProt P00519); assay: Inhibition of ABL1 (unknown origin) at 10 uM incubated for 1 hr by qPCR analysis
[3] = biological target: Fibroblast growth factor receptor 1 (Homo sapiens, UniProt P11362); assay: Inhibition of FGFR1 (unknown origin) at 10 uM incubated for 1 hr by qPCR analysis
[4] = biological target: Mitogen-activated protein kinase kinase kinase 20 (Homo sapiens, UniProt Q9NYL2); assay: Inhibition of ZAK (unknown origin) at 10 uM incubated for 1 hr by qPCR analysis
[5] = biological target: Homeodomain-interacting protein kinase 1 (Homo sapiens, UniProt Q86Z02); assay: Inhibition of HIPK1 (unknown origin) at 10 uM incubated for 1 hr by qPCR analysis
[6] = biological target: Mitogen-activated protein kinase 8 (Homo sapiens, UniProt P45983); assay: Inhibition of MAPK8 (unknown origin) at 10 uM incubated for 1 hr by qPCR analysis
[7] = test system: Serine/threonine-protein kinase B-raf (Homo sapiens), P15056 [V600E]; assay: Inhibition of human BRAF V600E mutant at 10 uM using myelin basic protein as substrate in presence of [gamma-33P]ATP incubated for 40 mins by scintillation counting method
[8] = biological target: Receptor-type tyrosine-protein kinase FLT3 (Homo sapiens, UniProt P36888); assay: Inhibition of FLT3 (unknown origin) at 10 uM incubated for 1 hr by qPCR analysis
[9] = biological target: Mitogen-activated protein kinase 14 (Homo sapiens, UniProt Q16539); assay: Inhibition of MAPK14 (unknown origin) at 10 uM incubated for 1 hr by qPCR analysis
[10] = biological target: Mitogen-activated protein kinase 11 (Homo sapiens, UniProt Q15759); assay: Inhibition of MAPK11 (unknown origin) at 10 uM incubated for 1 hr by qPCR analysis
[11] = biological target: Serine/threonine-protein kinase B-raf (Homo sapiens, UniProt P15056); assay: Inhibition of human wild type BRAF at 10 uM using myelin basic protein as substrate in presence of [gamma-33P]ATP incubated for 40 mins by scintillation counting method

Row | Compound | inhibition [7] | inhibition [11] | further results
1 | CN1CCN(CCNc2nccc(-c3c(-c4cccc(O)c4)nc4sccn34)n2)S1(=O)=O | 98.4% |  | inhibition [1]: Active; inhibition [2]: Active; inhibition [3]: Active; inhibition [4]: Active; inhibition [5]: Active; inhibition [6]: Active; inhibition [8]: Active; inhibition [9]: Active; inhibition [10]: Active
2 | O=S1(=O)NCCCN1CCNc1nccc(-c2c(-c3cccc(O)c3)nc3sccn23)n1 | 99.6% | 99% | 
3 | COc1cccc(-c2nc3sccn3c2-c2ccnc(NCCN3CCN(Cc4ccccc4)S3(=O)=O)n2)c1 | 96.2% | 95.3% | 
4 | COc1cccc(-c2nc3sccn3c2-c2ccnc(NCCN3CCCNS3(=O)=O)n2)c1 | 99.5% | 97.2% | 
5 | O=S(=O)(NCCNc1nccc(-c2c(-c3ccccc3)nc3sccn23)n1)c1ccc(F)cc1 | 97.4% | 96.6% | 
6 | COc1cccc(-c2nc3sccn3c2-c2ccnc(NCCN3CCN(C)S3(=O)=O)n2)c1 | 97.6% | 96.8% | 
7 | O=S(=O)(NCCNc1nccc(-c2c(-c3cccc(O)c3)nc3sccn23)n1)c1ccc(F)cc1 | 100% | 100% | 
8 | COc1ccc(-c2nc3sccn3c2-c2ccnc(NCCNS(=O)(=O)c3ccc(OC)cc3)n2)cc1 | 29.6% | 51.6% | 
9 | COc1ccc(-c2nc3sccn3c2-c2ccnc(NCCNS(=O)(=O)c3cccc4ccccc34)n2)cc1 | 21.6% | 33.2% | 
10 | CN1CCCN(CCNc2nccc(-c3c(-c4cccc(O)c4)nc4sccn34)n2)S1(=O)=O | 99.3% | 98.6% | 
11 | O=S(=O)(NCCNc1nccc(-c2c(-c3ccc(O)cc3)nc3sccn23)n1)c1ccc(O)cc1 | 35.3% | 51% | 
12 | Cc1ccc(S(=O)(=O)NCCNc2nccc(-c3c(-c4cccc(O)c4)nc4sccn34)n2)cc1 | 97.9% | 98.2% | 
13 | Cc1ccc(S(=O)(=O)NCCCNc2nccc(-c3c(-c4ccccc4)nc4sccn34)n2)cc1 | 97.7% | 96.5% | 
14 | COc1cccc(-c2nc3sccn3c2-c2ccnc(NCCN3CCCN(C)S3(=O)=O)n2)c1 | 97.9% | 97.5% | 
15 | CC(C)(C)OC(=O)N1CCCN(CCNc2nccc(-c3c(-c4cccc(O)c4)nc4sccn34)n2)S1(=O)=O | 96% | 96.7% | 
16 | O=S(=O)(NCCCNc1nccc(-c2c(-c3ccccc3)nc3sccn23)n1)c1ccc(F)cc1 | 99.2% | 98.5% | 
17 | COc1ccc(-c2nc3sccn3c2-c2ccnc(NCCNS(=O)(=O)c3ccc(C)cc3)n2)cc1 | 31.3% | 35.2% | 
18 | O=S1(=O)NCCN1CCNc1nccc(-c2c(-c3cccc(O)c3)nc3sccn23)n1 | 99.2% | 98.9% | 
19 | Cc1ccc(S(=O)(=O)NCCNc2nccc(-c3c(-c4ccccc4)nc4sccn34)n2)cc1 | 94.9% | 92.5% | 
20 | O=S(=O)(NCCNc1nccc(-c2c(-c3cccc(O)c3)nc3sccn23)n1)c1ccccc1 | 98.6% | 97.9% | 
21 | COc1ccc(S(=O)(=O)NCCNc2nccc(-c3c(-c4ccccc4)nc4sccn34)n2)cc1 | 96.3% | 95.4% | 
22 | COc1cccc(-c2nc3sccn3c2-c2ccnc(NCCN3CCCN(C(=O)OC(C)(C)C)S3(=O)=O)n2)c1 | 97.5% | 96% | 
23 | COc1cccc(-c2nc3sccn3c2-c2ccnc(NCCN3CC(C)(C)NS3(=O)=O)n2)c1 | 95.4% | 98.4% | 
24 | COc1cccc(-c2nc3sccn3c2-c2ccnc(NCCN3CCNS3(=O)=O)n2)c1 | 98.2% | 96.5% | 
25 | CC1(C)CN(CCNc2nccc(-c3c(-c4cccc(O)c4)nc4sccn34)n2)S(=O)(=O)N1 | 96.5% | 98.7% | 
26 | O=S(=O)(NCCNc1nccc(-c2c(-c3ccccc3)nc3sccn23)n1)c1ccc(O)cc1 | 99.2% | 99.6% | 
27 | COc1ccc(-c2nc3sccn3c2-c2ccnc(NCCNS(=O)(=O)c3ccc(F)cc3)n2)cc1 | 45.4% | 60.2% | 
28 | O=S1(=O)N(CCNc2nccc(-c3c(-c4cccc(O)c4)nc4sccn34)n2)CCN1Cc1ccccc1 | 96.3% | 96.7% | 
29 | Cc1ccc(S(=O)(=O)NCCNc2nccc(-c3c(-c4ccc(O)cc4)nc4sccn34)n2)cc1 | 39.5% | 47% | 

Second part, led by results:

Row | inhibition [7] | inhibition [11] | Compound | further results
30 | 100% | 100% | Cc1ccc(S(=O)(=O)NCCCNc2nccc(-c3c(-c4cccc(O)c4)nc4sccn34)n2)cc1 | 
31 | 94.3% | 92.1% | COc1ccc(S(=O)(=O)NCCNc2nccc(-c3c(-c4cccc(OC)c4)nc4sccn34)n2)cc1 | 
32 | 96.1% | 92.4% | COc1cccc(-c2nc3sccn3c2-c2ccnc(NCCCNS(=O)(=O)c3ccccc3)n2)c1 | 
33 | 98.2% | 94% | COc1cccc(-c2nc3sccn3c2-c2ccnc(NCCNS(=O)(=O)c3ccc(C(F)(F)F)cc3)n2)c1 | 
34 | 95.6% | 90.2% | COc1cccc(-c2nc3sccn3c2-c2ccnc(NCCNS(=O)(=O)c3ccccc3)n2)c1 | 
35 | 95.5% | 94.3% | COc1ccc(S(=O)(=O)NCCCNc2nccc(-c3c(-c4cccc(OC)c4)nc4sccn34)n2)cc1 | 
36 | 92.7% | 89.6% | COc1cccc(-c2nc3sccn3c2-c2ccnc(NCCNS(=O)(=O)c3ccc(C)cc3)n2)c1 | 
37 | 96.7% | 94.9% | COc1cccc(-c2nc3sccn3c2-c2ccnc(NCCNS(=O)(=O)c3cccc(F)c3)n2)c1 | 
38 | 94.9% | 91.9% | COc1cccc(-c2nc3sccn3c2-c2ccnc(NCCCNS(=O)(=O)c3ccc4ccccc4c3)n2)c1 | 
39 | 94.7% | 90.6% | COc1cccc(-c2nc3sccn3c2-c2ccnc(NCCCNS(=O)(=O)c3ccc(C)cc3)n2)c1 | 
40 | 93.7% | 90.6% | COc1cccc(-c2nc3sccn3c2-c2ccnc(NCCNS(=O)(=O)c3ccc4ccccc4c3)n2)c1 | 
41 | 99.3% | 98.9% | O=S(=O)(NCCCNc1nccc(-c2c(-c3cccc(O)c3)nc3sccn23)n1)c1ccccc1 | 
42 | 100% | 100% | O=S(=O)(NCCCNc1nccc(-c2c(-c3cccc(O)c3)nc3sccn23)n1)c1cccc(F)c1 | 
43 | 96.9% | 95.2% | COc1cccc(-c2nc3sccn3c2-c2ccnc(NCCNS(=O)(=O)c3ccc(F)cc3)n2)c1 | 
44 | 97.7% | 95.2% | COc1cccc(-c2nc3sccn3c2-c2ccnc(NCCCNS(=O)(=O)c3cccc(F)c3)n2)c1 | 
45 | 98.4% | 97.5% | COc1cccc(-c2nc3sccn3c2-c2ccnc(NCCCNS(=O)(=O)c3ccc(F)cc3)n2)c1 | 
46 | 98.6% | 97.3% | COc1ccc(S(=O)(=O)NCCCNc2nccc(-c3c(-c4ccccc4)nc4sccn34)n2)cc1 | 

The source made the active and inactive calls. The rule behind the calls is not given here.
